This is an account of results in ChEMBL document CHEMBL3779868, “Tetrahydroprotoberberine alkaloids with dopamine and σ receptor affinity” (Bioorg Med Chem, 2016).

Protein sequences, listed by entry. Tags and fused reporters are not part of them.
UniProt P35462, whole entry: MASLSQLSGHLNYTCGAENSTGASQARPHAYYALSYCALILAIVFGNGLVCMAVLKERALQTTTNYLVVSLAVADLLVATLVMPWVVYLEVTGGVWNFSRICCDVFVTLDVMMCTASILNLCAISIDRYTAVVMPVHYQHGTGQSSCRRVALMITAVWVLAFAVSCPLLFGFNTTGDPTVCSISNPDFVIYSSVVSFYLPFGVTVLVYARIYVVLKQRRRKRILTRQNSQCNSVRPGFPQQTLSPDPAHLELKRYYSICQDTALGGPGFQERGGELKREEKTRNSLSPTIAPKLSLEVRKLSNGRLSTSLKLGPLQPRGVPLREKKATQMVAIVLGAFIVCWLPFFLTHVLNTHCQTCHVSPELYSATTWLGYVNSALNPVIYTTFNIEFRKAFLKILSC
UniProt P14416, whole entry: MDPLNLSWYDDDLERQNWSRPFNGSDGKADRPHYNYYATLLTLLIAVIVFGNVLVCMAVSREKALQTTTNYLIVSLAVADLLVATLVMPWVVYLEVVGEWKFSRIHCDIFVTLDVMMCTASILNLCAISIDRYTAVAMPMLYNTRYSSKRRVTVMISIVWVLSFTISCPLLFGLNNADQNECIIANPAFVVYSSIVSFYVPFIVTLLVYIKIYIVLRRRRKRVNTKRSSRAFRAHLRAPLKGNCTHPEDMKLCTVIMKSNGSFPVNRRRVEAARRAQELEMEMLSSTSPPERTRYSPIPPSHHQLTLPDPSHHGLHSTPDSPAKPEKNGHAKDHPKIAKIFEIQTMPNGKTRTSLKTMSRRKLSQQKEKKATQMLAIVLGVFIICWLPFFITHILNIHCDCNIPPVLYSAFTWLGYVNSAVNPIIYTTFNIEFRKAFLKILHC

One assay addresses D(3) dopamine receptor (Homo sapiens, UniProt P35462). Nature of the assay: Displacement of [3H]N-methylspiperone from human dopamine D3 receptor by PDSP assay.
For another assay, the target named is D(2) dopamine receptor (Homo sapiens, UniProt P14416). Nature of the assay: Displacement of [3H]N-methylspiperone from human dopamine D2 receptor by PDSP assay.

As for `COc1cc2c(cc1O)C1Cc3ccc(OCC4CC4)c(OC)c3CN1CC2` (configuration not stated), the inhibition constant (Ki) on D(3) dopamine receptor and on D(2) dopamine receptor was 54 nM each time.
